Laboratory results: US20070269422A1

Biological target: baboon albumin (baboon)
Test: SPR (BIAcore)

**Q.** For “humanized anti-human serum albumin Nanobody ALB-8 (VHH)”, which Kd is on record?
**A.** 36 nM
